Measured values published in US11246873B2, “Directed differentiation of oligodendrocyte precursor cells to a myelinating cell fate” (The Scripps Research Institute, priority 2011, dated 2022).

System: histamine receptor
Assay type: cell-based, rat
Text: OPCs express mAChRs, predominantly subtypes M1, M3, and M5 (F. Ragheb et al., J Neurochem, 77, 1396 (2001)). […] Activation of M1 and M3 mAChRs is coupled to downstream signal transduction events through phospholipase C, which results in increased intracellular calcium concentrations (F. Ragheb et al., J Neurochem, 77, 1396 (2001)) (FIG. 23C). M2 and M4 mAChR activation inhibits adenylatecyclase, leading to decreased intracellular cAMP levels (C. C. Felder, FASEB J, 9, 619 (1995); M. Lopez-Ilasaca et al., Science, 275, 394 (1997)). […] Acetylcholine is a known regulator of OPC proliferation and, as such, muscarinic receptor subtypes represent a reasonable class of therapeutic targets for the modulation of OPC proliferation and differentiation (F. De Angelis et al., Dev Neurobiol, (2011)).

With `CN1[C@@H]2CC[C@H]1C[C@@H](OC(c1ccccc1)c1ccccc1)C2` [benztropine] the “effect of histamine or HTMT on benztropine activity / histamine receptor signaling” value was “no observable effect”.
